# In patent publication US11219221B2 (FarmHannong Co., Ltd., priority 2017, dated 2022):
# How the values were obtained:
# [1] = biological target: Thermosynechococcus sp. NK55a PPO CyPPO17 (SEQ ID NO: 3) variant V164C (MBP fusion); test: PPO enzyme inhibition (IC50), MBP-fused PPO; assay type: biochemical; settings: 50 μM protoporphyrinogen IX, pH 8.0, room temperature, 30 min
# Method: (§1) Thus, PPO proteins of wild type and variants were expressed as fused to MBP and were used for experiments.
# (§2) The following process for purification of PPO protein was performed in a 4° C. cold room. Amylose resin (NEB) was packed to 1.5×15 cm column (Bio-Rad, Econo Columns 1.5×15 cm, glass chromatography column, max. vol), and the obtained protein extracts were loaded to the column at a flow rate of 0.2 ml/min. The column was washed with 3 column volumes of buffer and the presence of protein in the washing solution was examined. When the protein was no longer detected, the washing procedure was terminated. Then, the MBP-PPO protein was eluted with approximately 2 column volumes of buffer containing 20 mM maltose. The protein concentration of each eluent was determined and the elution was stopped when the protein was no longer detected. Ten microliter of each fraction was investigated for protein quantification and SDS-PAGE analysis. […]
# (§3) Hundred and eighty microliters of a reaction mixture containing the purified PPO protein were placed in 96 well plates and 20 μl of […] were added. […] The reaction proceeded at room temperature for 30 min and the fluorescence of protoporphyrin IX was measured using Microplate reader (Sense, Hidex) (excitation: 405 nm; emission: 633 nm). […] To this, 2.7 N HCl was added, and the absorbance at 408 nm was measured. […]
# [2] = biological target: Thermosynechococcus sp. NK55a PPO CyPPO17 (SEQ ID NO: 3) variant A166L (MBP fusion); test: PPO enzyme inhibition (IC50), MBP-fused PPO; assay type: biochemical; settings: 50 μM protoporphyrinogen IX, pH 8.0, room temperature, 30 min
# Method: as §1, §2, §3
# [3] = test system: wild type A. thaliana (Col-0 ecotype); test: Herbicide spray test on Arabidopsis; assay type: in vivo, Arabidopsis thaliana; settings: 1 μM spray (100 ml, 0.24 m^2), within 7 days, 4-week-old plants
structure (smiles),measurement,setting,value
C#CCN1C(=O)COc2cc(F)c(N3C(=O)C4=C(CCCC4)C3=O)cc21 [flumioxazin],pIC50,[1],7.24
Cc1nn(-c2cc(NS(C)(=O)=O)c(Cl)cc2Cl)c(=O)n1C(F)F [sulfentrazone],pIC50,[2],< 5.00
COC(=O)CCNC(=O)C(C)Sc1cc(-n2c(=O)cc(C(F)(F)F)n(C)c2=O)c(F)cc1Cl (stereo not drawn) [tiafenacil],Plant death after herbicide spray,[3],completely died

# pIC50: −log10 of the molar value.
